# Test results taken from patent publication US5256548A, “Antiviral antibiotic BU-4344V” (Bristol-Myers Squibb Company, priority 1992, dated 1993).
# Legend:
# [1] = system: Madin Darby canine kidney (MDCK) cells
smiles,measurement,setting,value
"NC(=O)c1ncn([C@@H]2O[C@H](CO)[C@@H](O)[C@H]2O)n1 [Ribavirin, reference compound]",TD50 (concentration exhibiting 50% cytotoxicity),[1],> 100
same,MTD (Minimal Toxic Dose),MDCK Cells,> 100
